# Most compounds without a hit are left out; they make up all but 13% or so of the library.
# Sfp inh – blocks B. subtilis Sfp PPTase activity. AID 1490. Q9F4F7. Biochemical Sfp PPTase activity, qHTS. hit rate 3.5% among 310,000. Potency, µM, for the others: max response, negative = inhibition, usual class: inhibitors; active = well fitted inhibition curve with a large enough effect; inconclusive = small, poorly fitted or top-dose-only effect, or another doubt; inactive = no such curve, though single readings can be large or run the other way;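 also: the enzyme is Sfp with the accession as filed and its product quenches rhodamine fluorescence; potency is read from the fitted curve at half-maximal effect; 0% = enzyme reaction without inhibitor and -100% = no enzyme wells; top concentration of the series not given in the record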
#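 Reaction rates are the 30-min fluorescence difference (ex 525, em 598 nm) in wells containing 15 nM Sfp, 5 uM rhodamine-CoA and 12.5 uM BHQ-2-YbbR at pH 7.6 with 10 mM MgCl2.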
# KDM4E inh – inhibitors of human JMJD2E histone demethylase | JMJD2E catalytic domain, FDH-coupled NADH fluorescence (FDH is formaldehyde dehydrogenase) | 1.6% of 230,000 active | Potency, µM (highest dose often 57.1 µM), inactives show top-dose activity change, negative = inhibition, most hits filed as inhibitors; active means well fitted inhibition curve with a large enough effect, not every such curve was filed as active; inconclusive means small, poorly fitted or top-dose-only effect, or another doubt; inactive means no such curve, though single readings can be large or run the other way;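 further: potency means the concentration at half of the fitted maximal effect; 0% = wells with enzyme and -100% = buffer wells without enzyme; nearly all actives have a fitted effect of over 50% in size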
# LMNA splice mod – modulators of lamin A splicing; HeLa LMNA splicing GFP/RFP minigene ratio, 48 h; Potency, µM (doses to about 46.1 µM), without a hit: top-dose ratio change, negative = inhibition, most hits filed as inhibitors; 0.01% of 200,000 active; AID 1487; active means well fitted inhibition curve with a large enough effect in the signal ratio, with a control signal flat, not every such curve was filed as active; inconclusive means small, poorly fitted or top-dose-only effect, or effect the other way, or a change in a side signal; the % refers to the signal ratio; further: potency means the concentration at half of the fitted maximal effect; on the % scale 0 is the no-effect control and ±100 the full control effect
#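 Read-out is the ratio of GFP to DsRed2 object intensity, acquired by 488 nm laser-scanning cytometry on HeLa lamin A-EGFP minigene reporter cells. Compound incubation 48 hrs at 37 °C in Opti-MEM with 2% FBS; DMSO 0.5% final.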
# miR-21 FLuc – miR-21 reporter, rising signal | HeLa miR-21 FLuc reporter, luciferase, 48 h | Potency, µM (highest dose often 38.3 µM), for inactives: at the top dose reporter change, positive = more light | 340,000 tested, under 10 active | AID 2288; active = well fitted rising curve with a large enough effect; inconclusive = small, poorly fitted or top-dose-only effect; inactive = no such curve, though single readings can be large or run the other way;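 further: % of control where 0% means no effect; miR-21 action dims this reporter so a rising signal means less miR-21 action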
#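 HeLa cells endogenously expressing miR-21, stably carrying CMV-driven firefly luciferase with a downstream miR-21 binding site, 2000 cells/well. Titrations up to approximately 40 uM, 48 hours; luciferase luminescence read.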
# ALDH1A1 block – ALDH1A1 (human) enzyme inhibition; Purified ALDH1A1, NADH fluorescence, propionaldehyde substrate; Potency, µM (titrated, usually from 75.3 µM), inactives show at the highest dose activity, negative = inhibition, actives largely listed as inhibitors; 7.3% of 220,000 active; AID 1030; active means well fitted inhibition curve with a large enough effect, not every such curve was filed as active; inconclusive means small, poorly fitted or top-dose-only effect, or another doubt; inactive means no such curve, though single readings can be large or run the other way;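 further: potency means the concentration at half of the fitted maximal effect; plate controls were no enzyme wells and a reference inhibitor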
# G9a block – inhibitors of human histone lysine methyltransferase G9a; G9a H3K9 monomethylation, AlphaScreen, 2 h; Potency, µM (titrated, usually from 102 µM), for the others: at the top dose activity, negative = inhibition, actives largely listed as inhibitors; 8.8% of 350,000 active; AID 504332; further: potency means the concentration at half of the fitted maximal effect; on the % scale 0 is the no-effect control and ±100 the full control effect; nearly all actives have a fitted effect of over 75% in size
#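 AlphaScreen detection with an anti-monomethyl H3K9 antibody quantified product after a 2 h room-temperature reaction containing 500 nM biotinylated H3K9 peptide, 20 µM SAM and 20 nM enzyme, which had been preincubated 15 min with compound.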
# * = called active by the depositor; ? = inconclusive; nt = no result; [ ] = dose if it differs, or a comment. Unless noted, the call rests on the fitted dose curve; in most records, active means well fitted curve in the direction sought with a large enough effect; inconclusive means small, poorly fitted or top-dose-only effect, or another doubt; inactive means no such curve, though single readings can be large; an effect the other way counts as inactive or inconclusive.
SMILES,Sfp inh,KDM4E inh,LMNA splice mod,miR-21 FLuc,ALDH1A1 block,G9a block
C/C(=N\NC(=O)CSCc1ccc([N+](=O)[O-])cc1)c1ccccc1O,5%,25µM*,?,-2%,-7%,14%[59 µM]
Cc1ccc2nc(SCC(=O)NNC(=O)c3ccccc3)[nH]c2c1,11%,7%,-17%,-7%,10%,25µM*
O=C(CSc1nc2ccc(Cl)cc2[nH]1)NCCc1ccccc1,26%,-6%,?,-8%,-8%,79µM*
Cc1ccc(C)c(SCC(=O)NNC(=O)c2ccccc2)c1,18%,nt,nt,-1%,nt,45µM*
CCOC(=O)N1CCN(S(=O)(=O)c2c(C(=O)N3CCCCC3)c(C)n(C)c2C)CC1,4%,nt,nt,0%,nt,nt
Cc1ccc(CNC(=O)COC(=O)CSc2ccc(Br)cc2C)cc1,-3%,-11%,-9%,0%,?,15%
Cc1cc(Br)ccc1SCC(=O)OCC(=O)NC1CC1,15%,11%,-6%[46 µM],-6%,9%,79µM*
Cc1cc(Br)ccc1SCC(=O)OCC(=O)NC(C)c1ccccc1 (stereo not drawn),-10%,3%,8%,-4%,3%,40µM*
CN(C)C(=O)c1ccc(-c2ccc3ncnc(N(C)Cc4ccco4)c3c2)cc1,5%,nt,?,nt,?,-2%[0.501 µM]
CCOc1ccc(NC(=O)Cn2nc(SC)c(S(=O)(=O)c3ccccc3)c2N)cc1,nt,nt,nt,6%,nt,-28%[59 µM]
COc1ccc(/C=C2\C(=N)N3N=C(CC(=O)N4CCOCC4)SC3=NC2=O)cc1,9%,nt,nt,0%,nt,16%[59 µM]
Cc1ccc(/C=C2\C(=N)N3N=C(CC(=O)N4CCOCC4)SC3=NC2=O)o1,4%,nt,nt,0%,nt,56µM*
CC(C(=O)NCCSCc1cccc(Cl)c1)N(c1ccccc1)S(C)(=O)=O (stereo not drawn),-7%,nt,nt,?,nt,14%
CCOCCCn1c(=S)[nH]c2cc(C(=O)N3CCC(C(N)=O)CC3)ccc2c1=O,-24%,4%,-3%,0%,14%,35µM*
COc1ccccc1Cn1c(=S)[nH]c2cc(C(=O)N3CCC(C(N)=O)CC3)ccc2c1=O,?,nt,nt,-8%,nt,79µM*
CCOC(=O)C1CCCN(C(=O)c2ccc3c(=O)n(CCOC)c(=S)[nH]c3c2)C1 (stereo not drawn),?,1%,?,11%,10%,?
COc1ccc(N2Cc3cccc(C(=O)Nc4ccc(C)c(C)c4)c3C2=O)cc1,nt,nt,nt,-8%,nt,-24%[59 µM]
Cn1c(=O)c(C(=O)COC(=O)c2cc(-c3ccco3)nc3ccccc23)c(N)n(CC2CC2)c1=O,22µM*,?,?,12%,?,6.3µM*
Cn1c(=O)c(C(=O)COC(=O)c2cc(C3CC3)nc3ccccc23)c(N)n(Cc2ccccc2)c1=O,20%,?,?,4%,-11%,79µM*
Cn1c(=O)c(C(=O)COC(=O)c2cc(C(F)(F)F)nc3c(C(F)(F)F)cccc23)c(N)n(Cc2ccccc2)c1=O,-6%,-1%,nt,nt,-6%,nt
CC(C)Cn1c(N)c(C(=O)COC(=O)c2cc(C(F)(F)F)nc3c(C(F)(F)F)cccc23)c(=O)n(C)c1=O,13%,-8%,3%,-4%,2%,?
Cn1c(=O)c(C(=O)COC(=O)c2cc(-c3ccccc3)nc3ccccc23)c(N)n(Cc2ccccc2)c1=O,15%,?,?,-1%,-7%,79µM*
Cn1c(=O)c(C(=O)COC(=O)c2cc(C(F)(F)F)nc3ccccc23)c(N)n(Cc2ccccc2)c1=O,14%,?,?,1%,-10%,?
Cc1ccc(NC(=O)CNC(=O)C2CCCCC2)nc1,nt,nt,nt,nt,nt,-1%

# Given with two lines to a compound: entries from further up.
# Values run as follows: Sfp inh	KDM4E inh	LMNA splice mod	miR-21 FLuc	ALDH1A1 block	G9a block
> Cn1c(=O)c(C(=O)COC(=O)c2cc(-c3ccccc3)nc3ccccc23)c(N)n(Cc2ccccc2)c1=O
  15%	?	?	-1%	-7%	79µM*
> Cc1cc(Br)ccc1SCC(=O)OCC(=O)NC(C)c1ccccc1 (stereo not drawn)
  -10%	3%	8%	-4%	3%	40µM*
> COc1ccc(N2Cc3cccc(C(=O)Nc4ccc(C)c(C)c4)c3C2=O)cc1
  nt	nt	nt	-8%	nt	-24%[59 µM]
> COc1ccccc1Cn1c(=S)[nH]c2cc(C(=O)N3CCC(C(N)=O)CC3)ccc2c1=O
  ?	nt	nt	-8%	nt	79µM*
> Cc1ccc(C)c(SCC(=O)NNC(=O)c2ccccc2)c1
  18%	nt	nt	-1%	nt	45µM*
> Cn1c(=O)c(C(=O)COC(=O)c2cc(C(F)(F)F)nc3ccccc23)c(N)n(Cc2ccccc2)c1=O
  14%	?	?	1%	-10%	?

# (cont.)
SMILES,Sfp inh,KDM4E inh,LMNA splice mod,miR-21 FLuc,ALDH1A1 block,G9a block
O=C(Nc1ccc(Cl)cc1)N1N=CCC1c1ccccc1 (stereo not drawn),-1%,3%,nt,-15%,nt,20%
O=C(Nc1ccccc1)C1=C(O)CC(c2ccc(Cl)cc2)N2CCN=C12 (stereo not drawn),9%,6%,?,-14%,14µM*,-9%[59 µM]
O=C(c1ccc(F)c(F)c1)N1CCC2(CC1)NCCc1[nH]cnc12,8%,nt,nt,-5%,nt,-7%
CN1CCN(S(=O)(=O)c2cccc(C(=O)Oc3ccc(C(C)(C)C)cc3)c2)CC1,nt,nt,nt,nt,nt,50µM*
COC(=O)Cc1ccc(OC(=O)c2cccc(S(=O)(=O)N3CCN(C)CC3)c2)cc1,nt,nt,nt,nt,nt,-44%
CC(C)c1ccc(OC(=O)c2cccc(S(=O)(=O)N3CCN(C)CC3)c2)cc1,-9%,nt,nt,-1%,nt,20µM*
CC(C)c1ccc(CCNC(=O)c2cccc(S(=O)(=O)N3CCN(C)CC3)c2)cc1,4%,nt,nt,16%,nt,25%
S=P(c1ccc(N2CCOCC2)cc1N1CCOCC1)(N1CCOCC1)N1CCOCC1,35µM*,4%,0%,4%,28µM*,10µM*
O=[N+]([O-])c1ccc(N2CCCCC2)cc1N1CCOCC1,14%,6%,12%,-13%,1%,-13%
CC(C)CC(=O)n1sc(NC(=O)c2ccccc2)nc1=O,-4%,-2%,12%,-1%,?,1%[2.33 µM]
COC(=O)C1=C(C(=O)OC)SC(=C2C(=S)C(C)(C)N(C(=O)CC(C)C)c3ccccc32)S1,?,4%,8%,2%,3%,7.9µM*
C/C=C/OC(=O)NC(c1ccccc1)[C@]1(C(C)=O)CCCC1=O (stereo partly drawn),6%,nt,nt,nt,4%[13.5 µM],nt
NC(=O)CSc1nnc(Cc2csc(Nc3ccccc3)n2)n1Cc1ccccc1,20µM*,4%,11%,-1%,-11%,35µM*
COCCCn1c(Cc2csc(Nc3ccccc3)n2)nnc1SCC(N)=O,32µM*,4%,-10%,-3%,-2%,6.3µM*
COCCCn1c(SCC(N)=O)nnc1-c1ccccc1,2%,-4%,-2%,-2%,9%,17%[59 µM]
CCC1CCCCN1C(=O)c1ccc(OC2CCN(C(=O)CCOC)CC2)cc1 (stereo not drawn),15%,nt,nt,-14%,nt,69%
CCCC(=O)N(C)c1nnc(-c2ccc(OC)cc2)s1,-12%,?,-4%,-27%,28µM*,45µM*
COc1cccc(C(=O)N(C)c2nnc(-c3ccncc3)s2)c1,5%,?,-3%,-25%,0%,79µM*
CN(C(=O)c1ccccn1)c1nnc(-c2cnccn2)s1,-9%,3%,5%,-10%,-7%,45µM*
CN(C(=O)c1cnccn1)c1nnc(-c2cnccn2)s1,30%,6%,-5%,0%,5%,-8%[2.33 µM]
COCCN(C(=O)CCc1ccc(OC)cc1)c1nnc(-c2ccncc2)s1,-27%,?,nt,-8%,22µM*,?
CN(C(=O)COc1ccccc1)c1nnc(-c2cccnc2)s1,15%,1%,12%,-10%,4%,-25%[12.7 µM]
